Values of other authors, collected in patent publication US20250283018A1, “TOILET RIM BLOCKS WITH SCENT CHANGE” (SYMRISE AG, priority 2021, published 2025).

Details: Table 1, components of MARINA

SMILES: CC(=O)/C=C/C1=C(C)CCCC1(C)C [BETA IONONE]
- logP: 4.42
